Apparent affinities of Ab-14 variants for a coronavirus HR2 peptide

The measurements come from Engelhart et al. 2022 (doi:10.1038/s41597-022-01779-4) through the FLAb antibody collection.

Target: peptide PDVDLGDISGINAS, taken from heptad repeat 2 (HR2) of SARS-CoV-2 spike.

The variants keep the light chain, the linker and the frameworks of Ab-14 (scFv order VH, a 15-residue (Gly4Ser)3 linker, VL).
VH: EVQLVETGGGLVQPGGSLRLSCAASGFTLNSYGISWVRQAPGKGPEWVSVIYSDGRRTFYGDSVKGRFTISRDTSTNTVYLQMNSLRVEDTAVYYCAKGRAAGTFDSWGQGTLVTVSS
VL: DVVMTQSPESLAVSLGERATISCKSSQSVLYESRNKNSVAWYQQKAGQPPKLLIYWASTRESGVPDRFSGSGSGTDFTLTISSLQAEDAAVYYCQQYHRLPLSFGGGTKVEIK

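The starting antibody came from a phage panning campaign against this peptide. Variants in AAYL49 differ from the parent at up to three CDR positions; double and triple changes were sampled at random. The assay is AlphaSeq: two haploid yeast populations carry antibody and antigen on their surface. Binding brings cells together so that they mate, and sequencing counts the barcode pairs among the diploids. Read counts were normalised to the haploid input and turned into Kd by a linear fit to BCL2-family pairs of known affinity, for each replicate. The assay was run in three technical replicates.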

Variants are written as CDR1, CDR2 and CDR3 of the heavy chain (limits as in the source). Parent: GFTLNSYGIS, VIYSDGRRTFYGDSVK, GRAAGTFDS. Values are log10 of the apparent Kd in nM; lower means stronger binding. The mean shown is taken over the replicates in which the pair was detected. Where no diploid with the target was found in that replicate, the entry reads "nd": below detection, most likely a poor binder, though not proof of it. Nonspecific signal, from three strains lacking the peptide, appeared in 15% of pairings of library AAYL49, centred on 4.06 (5% of these signals below 2.83); values are not corrected for it. The control count says in how many pairings with the empty strains this scFv gave a signal, with their mean in brackets.

{"CDR-H1": "GVTLNSYGIS", "CDR-H2": "VIYSDGRRTFYGDSHK", "CDR-H3": "GRNAGTFDS", "log10 Kd (nM) by replicate": "5.32 / nd / nd", "log10 Kd (nM), mean": "5.32", "empty controls": "5/9 (4.67)"}
{"CDR-H1": "GFTLNSYGIS", "CDR-H2": "VIFVDGMRTFYGDSVK", "CDR-H3": "GRAAGTFDS", "log10 Kd (nM) by replicate": "nd / nd / nd", "log10 Kd (nM), mean": "nd", "empty controls": "2/9 (4.94)"}
{"CDR-H1": "GFTLNSYGIS", "CDR-H2": "VIYSDGRATFYGDSVK", "CDR-H3": "GRAAGTFDS", "log10 Kd (nM) by replicate": "nd / nd / nd", "log10 Kd (nM), mean": "nd", "empty controls": "0/9"}
{"CDR-H1": "GFTLNSYGIS", "CDR-H2": "VIYSFGFRTFYGDWVK", "CDR-H3": "GRAAGTFDS", "log10 Kd (nM) by replicate": "nd / nd / nd", "log10 Kd (nM), mean": "nd", "empty controls": "0/9"}
{"CDR-H1": "GFTLNSYGIS", "CDR-H2": "VIYSDQRRLFYGDSVK", "CDR-H3": "GRAAGTFDS", "log10 Kd (nM) by replicate": "nd / nd / nd", "log10 Kd (nM), mean": "nd", "empty controls": "1/9 (3.66)"}
{"CDR-H1": "GFTLNSYGIS", "CDR-H2": "VIYSDGRRTFYGDSVK", "CDR-H3": "GRAAGDFDS", "log10 Kd (nM) by replicate": "nd / nd / nd", "log10 Kd (nM), mean": "nd", "empty controls": "1/9 (4.17)"}
{"CDR-H1": "GFTLNSYGIS", "CDR-H2": "VMYSDGRRTFYGVSVK", "CDR-H3": "GRAAGTCDS", "log10 Kd (nM) by replicate": "nd / nd / nd", "log10 Kd (nM), mean": "nd", "empty controls": "0/9"}
{"CDR-H1": "GFLLNSYGIS", "CDR-H2": "VEYSDGRRTFYGDSRK", "CDR-H3": "GRAAGTFDS", "log10 Kd (nM) by replicate": "nd / nd / 5.11", "log10 Kd (nM), mean": "5.11", "empty controls": "3/9 (4.01)"}
{"CDR-H1": "GFTLNSYGIS", "CDR-H2": "VIYSDGMRTFYGDSVK", "CDR-H3": "GRAAGTFCN", "log10 Kd (nM) by replicate": "nd / nd / nd", "log10 Kd (nM), mean": "nd", "empty controls": "4/9 (4.10)"}
{"CDR-H1": "GFTLNSYGIW", "CDR-H2": "VIYSDHRRTFYGDSVK", "CDR-H3": "GRSAGTFDS", "log10 Kd (nM) by replicate": "nd / nd / nd", "log10 Kd (nM), mean": "nd", "empty controls": "2/9 (3.74)"}
{"CDR-H1": "GFTLNSYGIS", "CDR-H2": "VIYSEGRRTVQGDSVK", "CDR-H3": "GRAAGTFDS", "log10 Kd (nM) by replicate": "nd / nd / nd", "log10 Kd (nM), mean": "nd", "empty controls": "2/9 (3.31)"}
{"CDR-H1": "GFTLNSYGIV", "CDR-H2": "WIYSDGRRTFYGDVVK", "CDR-H3": "GRAAGTFDS", "log10 Kd (nM) by replicate": "nd / nd / nd", "log10 Kd (nM), mean": "nd", "empty controls": "0/9"}
{"CDR-H1": "GFTLNSYGIS", "CDR-H2": "VIYSDTRRTFYWDSVK", "CDR-H3": "GRYAGTFDS", "log10 Kd (nM) by replicate": "nd / nd / nd", "log10 Kd (nM), mean": "nd", "empty controls": "0/9"}
{"CDR-H1": "GWTLNKYGIS", "CDR-H2": "VIYSNGRRTFYGDSVK", "CDR-H3": "GRAAGTFDS", "log10 Kd (nM) by replicate": "nd / nd / nd", "log10 Kd (nM), mean": "nd", "empty controls": "0/9"}
{"CDR-H1": "GFTLNSYGIS", "CDR-H2": "VIYSEGRVTFYGDSVK", "CDR-H3": "GRAAGFFDS", "log10 Kd (nM) by replicate": "nd / nd / nd", "log10 Kd (nM), mean": "nd", "empty controls": "1/9 (2.54)"}
{"CDR-H1": "GFTLNSYGIS", "CDR-H2": "VIYSDGRRTFYGDSVK", "CDR-H3": "GRTADTVDS", "log10 Kd (nM) by replicate": "nd / nd / nd", "log10 Kd (nM), mean": "nd", "empty controls": "2/9 (3.91)"}
{"CDR-H1": "GFTLNCYGIS", "CDR-H2": "AIYSDGRRTFYGDSVK", "CDR-H3": "GRAAGTFDS", "log10 Kd (nM) by replicate": "nd / nd / nd", "log10 Kd (nM), mean": "nd", "empty controls": "0/9"}
{"CDR-H1": "GFTWNSYGIS", "CDR-H2": "VIYSDGRRTFEGDSVK", "CDR-H3": "GRAAGTFKS", "log10 Kd (nM) by replicate": "nd / nd / nd", "log10 Kd (nM), mean": "nd", "empty controls": "2/9 (4.22)"}
{"CDR-H1": "CFTTNSYGIS", "CDR-H2": "VIYSDGRRTFYMDSVK", "CDR-H3": "GRAAGTFDS", "log10 Kd (nM) by replicate": "4.77 / 3.76 / nd", "log10 Kd (nM), mean": "4.26", "empty controls": "4/9 (3.54)"}
{"CDR-H1": "GFTLNSYGIS", "CDR-H2": "VIYSDGRRDFYGDSVK", "CDR-H3": "GRAATTFDS", "log10 Kd (nM) by replicate": "nd / nd / 4.54", "log10 Kd (nM), mean": "4.54", "empty controls": "0/9"}
{"CDR-H1": "VFTLNSYGIS", "CDR-H2": "VIYSDGLRTFYGDSVK", "CDR-H3": "GRAAGVFDS", "log10 Kd (nM) by replicate": "nd / nd / 5.24", "log10 Kd (nM), mean": "5.24", "empty controls": "1/9 (3.09)"}
{"CDR-H1": "GRTLNSYGIS", "CDR-H2": "VIYRDGRRTFYGDSVR", "CDR-H3": "GRAAGTFDS", "log10 Kd (nM) by replicate": "nd / nd / 4.07", "log10 Kd (nM), mean": "4.07", "empty controls": "3/9 (4.60)"}
{"CDR-H1": "GFTLISYGIS", "CDR-H2": "VNYSDGRRTFYGDSVK", "CDR-H3": "GRAAGTFDE", "log10 Kd (nM) by replicate": "nd / nd / nd", "log10 Kd (nM), mean": "nd", "empty controls": "1/9 (3.97)"}
{"CDR-H1": "GFTLNSYGIS", "CDR-H2": "VIYSYGRRTFSGDSVK", "CDR-H3": "GRAAGTFLS", "log10 Kd (nM) by replicate": "nd / nd / nd", "log10 Kd (nM), mean": "nd", "empty controls": "1/9 (4.29)"}
{"CDR-H1": "GFTLNSVGGS", "CDR-H2": "VIYSDGRRTFYGDSVK", "CDR-H3": "GRAAGTFDD", "log10 Kd (nM) by replicate": "nd / nd / nd", "log10 Kd (nM), mean": "nd", "empty controls": "1/9 (2.66)"}
{"CDR-H1": "GFTLPSYGIS", "CDR-H2": "VIYSDWRRTFYGDSVK", "CDR-H3": "GRAAGGFDS", "log10 Kd (nM) by replicate": "4.57 / nd / nd", "log10 Kd (nM), mean": "4.57", "empty controls": "3/9 (4.30)"}
{"CDR-H1": "GFTLNSYGIS", "CDR-H2": "VIYSDGRRTFYGDEAK", "CDR-H3": "GRAAGTFDR", "log10 Kd (nM) by replicate": "2.33 / 3.81 / 2.66", "log10 Kd (nM), mean": "2.93", "empty controls": "2/9 (3.47)"}

From the list, the first 2 with no signal in any replicate:

CDR-H1	CDR-H2	CDR-H3	log10 Kd (nM) by replicate	log10 Kd (nM), mean	empty controls
GFTLNSYGIS	VIFVDGMRTFYGDSVK	GRAAGTFDS	nd / nd / nd	nd	2/9 (4.94)
GFTLNSYGIS	VIYSDGRATFYGDSVK	GRAAGTFDS	nd / nd / nd	nd	0/9

Parent in this assay: reference entry 0.65, copy in this library 4.11 (one replicate of three).